Test system: LM2 cells
Assay: Lung metastasis formation after tail vein injection of LM2 cells, pharmacological targeting, bioluminescence imaging
Type: in vivo, Balb/c nude mice
Conditions: preliminary results; drugs individually or in combination; FIGS. 2A and 2B

With “Erbitux: anti-EGFR antibody to target the epiregulin pathway” the preventing lung metastasis was “findings similar to those obtained using genetic knockdowns”.

Source: patent publication US8178505B2, “Method of predicting and reducing risk of metastasis of breast cancer to lung” (Sloan-Kettering Institute for Cancer Research, priority 2005, dated 2012)
